# In patent US11312688B2, “Pyrazole compound” (Sumitomo Dainippon Pharma Co., Ltd., priority 2011, dated 2022):
# Sequences of proteins named here, by UniProt entry; tags and fusion partners are left off. A change or cut given only in a name is not applied to a line headed by its entry.
# UniProt P28335: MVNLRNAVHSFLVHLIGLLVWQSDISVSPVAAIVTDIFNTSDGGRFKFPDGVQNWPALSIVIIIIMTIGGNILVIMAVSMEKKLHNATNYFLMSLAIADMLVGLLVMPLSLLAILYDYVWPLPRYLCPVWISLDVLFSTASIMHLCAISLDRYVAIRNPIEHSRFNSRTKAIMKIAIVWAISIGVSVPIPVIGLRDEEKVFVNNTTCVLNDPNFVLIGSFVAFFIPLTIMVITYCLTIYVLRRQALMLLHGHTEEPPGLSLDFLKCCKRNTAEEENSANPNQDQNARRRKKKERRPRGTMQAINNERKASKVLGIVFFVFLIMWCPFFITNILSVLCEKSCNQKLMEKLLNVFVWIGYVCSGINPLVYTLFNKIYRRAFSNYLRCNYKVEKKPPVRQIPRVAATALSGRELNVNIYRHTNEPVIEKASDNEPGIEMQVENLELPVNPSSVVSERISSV
# Target: human serotonin 2C receptor (h-5-HT2C) (Homo sapiens (Human), UniProt P28335)
# Assay: 5-HT2C receptor agonistic action assay (FLIPR Calcium 4, h-5-HT2C/CHO cells; agonistic / inverse agonistic action)
# Type: cell-based
# Conditions: Test Ex. 3; test material 10 μmol/L; 100% = 10 μmol/L 5-HT, −100% = 10 μmol/L SB206553; below 0% = inverse agonistic action
# Procedure: 3-1. The Cells and Inoculation Thereof
# In the experiment, human serotonin 2C receptor (h-5-HT2C) was expressed in CHO cells (h-5-HT2C/CHO). The cells were incubated with UltraCHO Lipuid (trademark) (manufactured by BioWhitakker) containing 1% FBS, 400 μg/mL Geneticin, 100 U/mL penicillin-100 μg/mL streptomycin (all manufactured by Sigma Aldrich) and 250 μg/mL Zeosin (manufactured by InvivoGen) in an incubator containing 5% CO2. […]
# The 5-HT2C receptor agonistic action was evaluated with FLIPR Calcium 4 Assay kit (manufactured by Molecular Devices). […] Then, the cells were set in FLIPR TETRA (trademark) (manufactured by Molecular Devices), to the cells was added the test material diluted with HHBP buffer, 2.5 mmol/L Probenecid (manufactured by Sigma) (concentration after dilution: 10 μmol/L) at an amount of 20 μL/well, and the fluorescence was measured. Then, in order to evaluate the antagonistic action of the test material, 20 μL/well of 5-HT solution (manufactured by Sigma, final concentration: 0.1 nmol/L) was further added to the cells, and the fluorescence was measured.
# The 5-HT2C receptor agonistic action of each test material was calculated as a rate of fluorescence enhancement wherein 100% was defined as a value when the cells were given 10 μmol/L 5-HT. […]
row,SMILES,5-HT2C receptor agonistic action [%]
1,CCCCn1nc(CNC)cc1OCc1cc(F)ccc1F [Example 242],−95
2,CNCc1cc(OCc2ccccc2)n(CC2CC3CCC2C3)n1 (centres unmarked) [Example 115],−103
